From patent publication US10864211B2, “Hydroxy isoxazole compounds useful as GPR120 agonists” (Merck Sharp & Dohme Corp., priority 2016, dated 2020)

Sequences of proteins named here, by UniProt entry; tags and fusion partners are left off.
UniProt Q5NUL3, whole entry: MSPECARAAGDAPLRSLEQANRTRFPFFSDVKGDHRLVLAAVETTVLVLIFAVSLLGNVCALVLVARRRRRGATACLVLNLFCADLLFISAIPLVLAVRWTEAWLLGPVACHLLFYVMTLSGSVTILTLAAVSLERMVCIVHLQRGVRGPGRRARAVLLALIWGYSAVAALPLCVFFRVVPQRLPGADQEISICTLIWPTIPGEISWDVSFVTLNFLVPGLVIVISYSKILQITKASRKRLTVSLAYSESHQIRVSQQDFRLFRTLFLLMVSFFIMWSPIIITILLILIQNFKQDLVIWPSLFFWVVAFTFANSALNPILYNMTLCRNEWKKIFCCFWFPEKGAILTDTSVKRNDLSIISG

Biological target: human GPR120 (Homo sapiens, UniProt Q5NUL3)
Experiment: Human GPR120 IP1 assay (inositol phosphate turnover)
Conditions: read-out: Human GPR120 IP1 EC50; IP1 accumulation in CHO-K1 cells stably expressing the short form of human GPR120; tested form: 2HCl
From the text: The binding of small molecule agonists to the G-protein-coupled receptor GPR120 activates phospholipase C, and leads to the generation of inositol 1,4,5-trisphosphate (InsP3 or IP3). IP3 is subsequently de-phosphorylated to IP1, which accumulates in cells and is stable in the presence of lithium chloride.
In the present method, agonist-induced activation of the human and rat GPR120 receptor was monitored by measuring the accumulation of IP1 in CHO-K1 cells that were stably expressing the short form of human GPR120 (Accession #NM_001195755) or HEK293 cells stably expressing rat GPR120 (Accession #NM_001047088). Following agonist addition, GPR120 activation and subsequent accumulation of IP1 was measured using a homogeneous Time Resolved Fluorescence-based ELISA commercially available from CisBio (IP-one ELISA Kit). The IP-One ELISA was a competitive immunoassay which uses IP1 labeled with […] and a terbium cryptate-labeled anti-IP1 monoclonal antibody. […] The signal loss was then back calculated to IP1 concentration using an IP1 standard curve. […]
The assay was performed in 384-well format. […] The plates were then read in a Perkin ElmerEnVision or equivalent reader able to measure FRET. […] The data was normalized to % activity using a reference compound, and the EC50 values were determined using a standard 4-parameter fit.

Question: How did the EC50 turn out when `CCOc1cc([C@H]2C[C@H](Oc3ccc(-c4cc(O)no4)cn3)C2)ccn1` (relative stereo) was run?
Answer: 28 nM
